Test results from US20070054328A1 (published 2007).

T1: FLAG-TAPP2 (UniProt Q9HB19 1-425, limits assumed)
T1 construct: Co-expressed in 293 cells with GST-PDZ domain fusions
T1 sequence (looked up): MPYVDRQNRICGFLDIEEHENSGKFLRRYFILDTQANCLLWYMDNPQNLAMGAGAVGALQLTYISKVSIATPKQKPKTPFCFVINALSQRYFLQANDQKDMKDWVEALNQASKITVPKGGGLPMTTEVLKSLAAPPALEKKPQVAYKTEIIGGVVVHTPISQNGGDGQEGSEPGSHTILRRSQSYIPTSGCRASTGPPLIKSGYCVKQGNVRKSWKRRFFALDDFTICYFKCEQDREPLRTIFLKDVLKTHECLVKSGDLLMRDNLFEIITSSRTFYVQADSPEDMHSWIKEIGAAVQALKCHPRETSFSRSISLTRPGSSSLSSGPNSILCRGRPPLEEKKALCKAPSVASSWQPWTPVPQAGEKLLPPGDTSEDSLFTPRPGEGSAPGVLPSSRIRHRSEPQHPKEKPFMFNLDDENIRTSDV

B1: GST-PTPH1-PDZ domain (other, not shown: small tags and cut ends)
chain (part 1 of 2): MSPILGYWKIKGLVQPTRLLLEYLEEKYEEHLYERDEGDKWRNKKFELGLEFPNLPYYIDGDVKLTQSMAIIRYIADKHNMLGGCPKERAEISMLEGAVLDIRYGVSRIAYSKDFETLKVDFLSKLPEMLKMFEDRLCHKTYLNGDHVTHPDFMLYDALDVVLYMDPMCLDAFPKLVCFKKRIEAIPQIDKYLKSSKYIAWPLQGWQATFGGGDHPPK
chain (part 2 of 2): GKFGFNLKGGVDQKMPLVVSRINPESPADTCIPKLNEGDQIVLINGRDISEHTHDQVVMFIKASRESHSRELALVIRRRAVRS
notes: Amplified from an EST (BG115423, IMAGE clone 4416683); also called PDZ domain of PTPH1; HA tagged PDZ domain of PTPH1
B2: GST-PTP-MEG1-PDZ domain (other, not shown: small tags and cut ends)
chain (part 1 of 2): B1 chain (part 1 of 2)
chain (part 2 of 2): GIPHDNLVLIRMKPDENGRFGFNVKGGYDQKMPVIVSRVAPGTPADLCVPRLNEGDQVVLINGRDIAEHTHDQVVLFIKASCERHSGELMLLVRPNAVYDVV
notes: Amplified from an EST (BI916937, IMAGE clone 5241923); also called PDZ domain of PTP-MEG1; HA tagged PDZ domain of PTP-MEG1

What was measured:
FLAG-TAPP1 = target: T2, FLAG-TAPP1 (UniProt Q9HB21); test: co-transfection binding assay in 293 cells; glutathione-Sepharose pull-down, anti-FLAG immunoblot
T2 construct: Co-expressed in 293 cells with GST-PDZ domain fusions

FLAG-TAPP2 = target: T1, FLAG-TAPP2; test: as above

Row | Binder | binding result (FLAG-TAPP1) | binding result (FLAG-TAPP2)
1 | B1 | no binding | no binding
2 | B2 | no binding | no binding
